Reference: ChEMBL document CHEMBL1151884, “Nuclease resistant methylphosphonate-DNA/LNA chimeric oligonucleotides” (2009)

Experiments:
Nucleic Acid [1] = assay: Binding affinity to RNA assessed as change in melting temperature in presence of 120 mM NaCl
Nucleic Acid [2] = assay: Binding affinity to DNA assessed as change in melting temperature in presence of 120 mM NaCl
Nucleic Acid [3] = assay: Binding affinity to DNA assessed as change in melting temperature in presence of 30 mM NaCl
Nucleic Acid [4] = assay: Binding affinity to RNA assessed as change in melting temperature in presence of 30 mM NaCl

Structure (SMILES) | ΔTm (Nucleic Acid [1]) [°C] | ΔTm (Nucleic Acid [2]) [°C] | ΔTm (Nucleic Acid [3]) [°C] | ΔTm (Nucleic Acid [4]) [°C]
Cc1cn([C@@H]2O[C@@]3(COP(=O)(O)O[C@H]4C[C@H](n5cnc6c(N)ncnc65)O[C@@H]4COP(=O)(O)O[C@H]4C[C@H](n5cnc6c(=O)[nH]c(N)nc65)O[C@@H]4COP(=O)(O)O[C@H]4[C@H]5OC[C@]4(COP(=O)(O)O[C@H]4C[C@H](n6cnc7c(=O)[nH]c(N)nc76)O[C@@H]4CO)O[C@H]5n4cc(C)c(=O)[nH]c4=O)CO[C@@H]2[C@@H]3OP(=O)(O)OC[C@H]2O[C@@H](n3cnc4c(N)ncnc43)C[C@@H]2OP(=O)(O)OC[C@@]23CO[C@@H]([C@H](n4cc(C)c(=O)[nH]c4=O)O2)[C@@H]3OP(=O)(O)OC[C@H]2O[C@@H](n3cnc4c(=O)[nH]c(N)nc43)C[C@@H]2OP(=O)(O)OC[C@H]2O[C@@H](n3ccc(N)nc3=O)C[C@@H]2O)c(=O)[nH]c1=O | 26 | 15 | 14 | 20
Cc1cn([C@H]2C[C@H](OP(=O)(O)OC[C@H]3O[C@@H](n4cnc5c(=O)[nH]c(N)nc54)C[C@@H]3OP(=O)(O)OC[C@H]3O[C@@H](n4ccc(N)nc4=O)C[C@@H]3O)[C@@H](COP(=O)(O)O[C@H]3C[C@H](n4cnc5c(N)ncnc54)O[C@@H]3COP(=O)(O)O[C@H]3C[C@H](n4cc(C)c(=O)[nH]c4=O)O[C@@H]3COP(=O)(O)O[C@H]3C[C@H](n4cnc5c(N)ncnc54)O[C@@H]3COP(=O)(O)O[C@H]3C[C@H](n4cnc5c(=O)[nH]c(N)nc54)O[C@@H]3COP(=O)(O)O[C@H]3C[C@H](n4cc(C)c(=O)[nH]c4=O)O[C@@H]3COP(=O)(O)O[C@H]3C[C@H](n4cnc5c(=O)[nH]c(N)nc54)O[C@@H]3CO)O2)c(=O)[nH]c1=O | 0 | 0 | 0 | 0
